Experimental data published in US20240360134A1, “PYRAZOLOPYRIMIDINES AND THEIR USES AS PDGFR INHIBITORS” (priority 2021, published 2024).
pIC50: −log10 of the molar value. Read-outs that look alike come from different tables or passages of the source.

Chains of the proteins cited; added tags and fusions are not shown.
UniProt P09619, whole entry, looked up: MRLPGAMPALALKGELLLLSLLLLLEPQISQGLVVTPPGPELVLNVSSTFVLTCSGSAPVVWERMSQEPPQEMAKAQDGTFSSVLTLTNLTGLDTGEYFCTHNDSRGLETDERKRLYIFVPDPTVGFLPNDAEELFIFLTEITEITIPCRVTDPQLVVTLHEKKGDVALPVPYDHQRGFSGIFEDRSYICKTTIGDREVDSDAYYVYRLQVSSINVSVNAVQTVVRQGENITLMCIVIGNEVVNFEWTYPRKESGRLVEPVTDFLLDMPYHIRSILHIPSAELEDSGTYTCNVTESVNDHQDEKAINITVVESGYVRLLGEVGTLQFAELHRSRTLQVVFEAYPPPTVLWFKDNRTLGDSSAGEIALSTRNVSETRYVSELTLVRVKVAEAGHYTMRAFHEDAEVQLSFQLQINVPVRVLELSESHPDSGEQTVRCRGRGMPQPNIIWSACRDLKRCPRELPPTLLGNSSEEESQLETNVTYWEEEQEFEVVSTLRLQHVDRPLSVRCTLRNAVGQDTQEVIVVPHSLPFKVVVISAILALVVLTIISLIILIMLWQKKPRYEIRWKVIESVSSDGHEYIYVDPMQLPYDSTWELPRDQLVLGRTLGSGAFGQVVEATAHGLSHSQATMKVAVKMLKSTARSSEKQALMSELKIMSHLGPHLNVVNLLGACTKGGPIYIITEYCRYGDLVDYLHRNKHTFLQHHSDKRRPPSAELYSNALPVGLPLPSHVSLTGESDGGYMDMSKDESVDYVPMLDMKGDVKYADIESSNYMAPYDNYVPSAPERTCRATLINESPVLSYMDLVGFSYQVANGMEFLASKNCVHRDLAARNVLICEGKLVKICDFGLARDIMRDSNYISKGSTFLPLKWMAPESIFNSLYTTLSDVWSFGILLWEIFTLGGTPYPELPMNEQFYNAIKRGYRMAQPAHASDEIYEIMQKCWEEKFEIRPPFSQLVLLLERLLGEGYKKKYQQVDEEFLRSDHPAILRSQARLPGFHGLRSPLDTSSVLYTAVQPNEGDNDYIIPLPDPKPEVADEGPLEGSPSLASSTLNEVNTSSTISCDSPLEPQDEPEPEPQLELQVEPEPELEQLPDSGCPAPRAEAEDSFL

Legend:
[1] = target: Tb-labeled inactive PDGFRβ (Homo sapiens (Human), UniProt P09619); assay: biochemical; type: binding
[2] = target: His6-TEV-PDGFRβ (557-1016) (Homo sapiens (Human), UniProt P09619); assay: PDGFRβ HTRF Assay; type: biochemical
Protocol: Instrumentation: a. Compound liquid handling: LabCyte Echo; b. Reagent liquid handling: Thermo Scientific Multidrop Combi; c. BMG PHERAStar multilabel plate reader.
Protein Reagent: His6-TEV-PDGFRβ Protein Prep prepared at Accelagen.
Assay buffer stock solution, contains 50 mM Hepes, 10 mM MgCl2, 1 mM EGTA, and 0.01% Brij-35, 0.01% ovalbumin, 2 mM DTT at pH 7.5, in molecular biology grade water. Store at room temperature.
Assay buffer. Dilute 5× Kinase buffer 5-fold with molecular biology grade water and add DTT to 2 mM and ovalbumin to 0.1 mg/mL (or 0.01%).
2× protein solution. Make a working solution of […] PDGFRβ in assay buffer. Keep on ice until use to maintain enzyme stability.
2× substrate solution. Make a working solution of 1.6 mM ATP and 1 μM TK-substrate biotin peptide in assay buffer. 3× quench/detection solution.
Step 2. PDGFRβ E+I pre-incubation: Add 2 μL 2× protein solution to columns 1-24 using the Multidrop Combi. Centrifuge at 1000 rpm for 1 min. Incubate 30 min at RT
Step 2. Enzymatic reaction: Add 2 μL substrate solution to columns 1-24 to initiate the reaction using the Multidrop Combi; cover/seal the assay plate to reduce evaporation. Centrifuge at 1000 rpm for 1 min. Incubate at room temperature for 3 hours.
Final concentrations of components in PDGFRp cascade assay:
0.5 μM TK-substrate biotin peptide
Step 3. Quench/Detection: Add 2 μl 3× quench/detection solution to columns 1-24 using the Multidrop Combi; cover/seal the plate. Centrifuge 1 min 1000 rpm. Incubate at RT for 60 min.
HTRF ratio values calculated by the instrument (Ratio is acceptor counts/donor counts*10,000) is exported from the plate reader and used in data analysis. The exported data will be used to calculate 1) compound activity and 2) assay statistics. […] Assay statistics can include Robust Z′ and Signal to Background.
% Inhibition Calculation: Percent inhibition will be calculated for sample wells based on the equation: […]
IC50 Calculation: For IC50 determination, full 11-point dose response data will be processed using the following equation: […]

| Compound | pIC50 [1] | pIC50 [2] | pIC50 ([1]; read-out: PDGFR Lantha IC50) | pIC50 ([2]; 800 μM ATP, 0.5 μM TK-substrate biotin peptide, 30 min pre-incubation, 3 hours reaction, read-out: PDGFR HTRF IC50) |
| --- | --- | --- | --- | --- |
| Cc1ncc(C(=O)NCCN2CC[C@H](C)C2)cc1Nc1nn(C)c2nc(Nc3cncnc3)ncc12 [Example 12, (S)-6-methyl-5-((1-methyl-6-(pyrimidin-5-ylamino)-1H-pyrazolo[3,4-d]pyrimidin-3-yl)amino)-N-(2-(3-methylpyrrolidin-1-yl)ethyl)nicotinamide] | 8.24 | 9.32 | – | – |
| Cc1ncc(C(=O)NCCN2CCCC23COC3)cc1Nc1nn(C)c2nc(Nc3cnn(C)c3)ncc12 [Example 18, N-(2-(2-oxa-5-azaspiro[3.4]octan-5-yl)ethyl)-6-methyl-5-((1-methyl-6-((1-methyl-1H-pyrazol-4-yl)amino)-1H-pyrazolo[3,4-d]pyrimidin-3-yl)amino)nicotinamide] | 8.57 | 9.29 | – | – |
| Cc1ncc(C(=O)NCCN2CCC3(CCO3)CC2)cc1Nc1nn(C)c2nc(Nc3cnn(C)c3)ncc12 [Example 19, N-(2-(1-oxa-7-azaspiro[3.5]nonan-7-yl)ethyl)-6-methyl-5-((1-methyl-6-((1-methyl-1H-pyrazol-4-yl)amino)-1H-pyrazolo[3,4-d]pyrimidin-3-yl)amino)nicotinamide] | 8.35 | 9.28 | – | – |
| Cc1ncc(C(=O)NCCN2CCC3(CC2)COC3)cc1Nc1nn(C)c2nc(Nc3cnn(C)c3)ncc12 [Example 20, N-(2-(2-oxa-7-azaspiro[3.5]nonan-7-yl)ethyl)-6-methyl-5-((1-methyl-6-((1-methyl-1H-pyrazol-4-yl)amino)-1H-pyrazolo[3,4-d]pyrimidin-3-yl)amino)nicotinamide] | 8.37 | 9.29 | – | – |
| Cc1ncc(C(=O)NCCN(C)C2CCOCC2)cc1Nc1nn(C)c2nc(Nc3cnn(C)c3)ncc12 [Example 21, 6-methyl-N-(2-(methyl(tetrahydro-2H-pyran-4-yl)amino)ethyl)-5-((1-methyl-6-((1-methyl-1H-pyrazol-4-yl)amino)-1H-pyrazolo[3,4-d]pyrimidin-3-yl)amino)nicotinamide] | 8.47 | 9.37 | – | – |
| COC1CCN(CCNC(=O)c2cnc(C)c(Nc3nn(C)c4nc(Nc5cnn(C)c5)ncc34)c2)CC1 [Example 22, N-(2-(4-methoxypiperidin-1-yl)ethyl)-6-methyl-5-((1-methyl-6-((1-methyl-1H-pyrazol-4-yl)amino)-1H-pyrazolo[3,4-d]pyrimidin-3-yl)amino)nicotinamide] | 8.38 | 9.40 | – | – |
| Cc1ncc(C(=O)NCCN2CCS(=O)(=O)CC2)cc1Nc1nn(C)c2nc(Nc3cnn(C)c3)ncc12 [Example 23, N-(2-(1,1-dioxidothiomorpholino)ethyl)-6-methyl-5-((1-methyl-6-((1-methyl-1H-pyrazol-4-yl)amino)-1H-pyrazolo[3,4-d]pyrimidin-3-yl)amino)nicotinamide] | 8.57 | 9.39 | – | – |
| Cc1ncc(C(=O)NCCN2CCOCC23CC3)cc1Nc1nn(C)c2nc(Nc3cnn(C)c3)ncc12 [Example 24, N-(2-(7-oxa-4-azaspiro[2.5]octan-4-yl)ethyl)-6-methyl-5-((1-methyl-6-((1-methyl-1H-pyrazol-4-yl)amino)-1H-pyrazolo[3,4-d]pyrimidin-3-yl)amino)nicotinamide] | 8.52 | 9.26 | – | – |
| COCC1CCCN1CCNC(=O)c1cnc(C)c(Nc2nn(C)c3nc(Nc4cnn(C)c4)ncc23)c1 (stereo not drawn) [Example 25, N-(2-(2-(methoxymethyl)pyrrolidin-1-yl)ethyl)-6-methyl-5-((1-methyl-6-((1-methyl-1H-pyrazol-4-yl)amino)-1H-pyrazolo[3,4-d]pyrimidin-3-yl)amino)nicotinamide] | 8.57 | 9.44 | – | – |
| Cc1ncc(C(=O)NCCN2CC3COCC3C2)cc1Nc1nn(C)c2nc(Nc3cnn(C)c3)ncc12 (stereo not drawn) [Example 26, 6-methyl-5-((1-methyl-6-((1-methyl-1H-pyrazol-4-yl)amino)-1H-pyrazolo[3,4-d]pyrimidin-3-yl)amino)-N-(2-(tetrahydro-1H-furo[3,4-c]pyrrol-5(3H)-yl)ethyl)nicotinamide] | 8.42 | 9.24 | – | – |
| Cn1nc(Nc2cc(C(=O)NCCN3CCCC3(C)C)ccc2F)c2cnc(Nc3ccnnc3)nc21 [Example 50, N-(2-(2,2-dimethylpyrrolidin-1-yl)ethyl)-4-fluoro-3-((1-methyl-6-(pyridazin-4-ylamino)-1H-pyrazolo[3,4-d]pyrimidin-3-yl)amino)benzamide] | 8.30 | 9.60 | – | – |
| Cc1ncc(C(=O)NCCN2CCCC23CC3)cc1Nc1nn(C)c2nc(Nc3cnn(C)c3)ncc12 [Example 53, N-(2-(4-azaspiro[2.4]heptan-4-yl)ethyl)-6-methyl-5-((1-methyl-6-((1-methyl-1H-pyrazol-4-yl)amino)-1H-pyrazolo[3,4-d]pyrimidin-3-yl)amino)nicotinamide] | 8.51 | 9.32 | – | – |
| Cc1ncc(C(=O)NCCN2CCOC3(CC3)C2)cc1Nc1nn(C)c2nc(Nc3cnn(C)c3)ncc12 [Example 54, N-(2-(4-oxa-7-azaspiro[2.5]octan-7-yl)ethyl)-6-methyl-5-((1-methyl-6-((1-methyl-1H-pyrazol-4-yl)amino)-1H-pyrazolo[3,4-d]pyrimidin-3-yl)amino)nicotinamide] | 8.52 | 9.37 | – | – |
| Cc1ncc(C(=O)NCCN2CC[C@@H](C)C2)cc1Nc1nn(C)c2nc(Nc3cncnc3)ncc12 [Example 59, (R)-6-methyl-5-((1-methyl-6-(pyrimidin-5-ylamino)-1H pyrazolo-[3,4-d]pyrimidin-3-yl)amino)-N-(2-(3-methylpyrrolidin-1-yl)ethyl)nicotinamide] | – | – | 8.21 | 9.41 |
| Cc1ncc(C(=O)NCCN2CCC3(CCC3)C2)cc1Nc1nn(C)c2nc(Nc3cnn(C)c3)ncc12 [Example 83, N-(2-(6-azaspiro[3.4]octan-6-yl)ethyl)-6-methyl-5-((1-methyl-6-((1-methyl-1H-pyrazol-4-yl)amino)-1H-pyrazolo[3,4-d]pyrimidin-3-yl)amino)nicotinamide] | 8.64 | 9.54 | – | – |
